pKd: −log10 of the molar value.

The experiment addresses thrombomodulin. Description: apparent dissociation constant for thrombomodulin (K dapp); method not described.

Usually pKd stands for −log10 of the Kd, conventionally taken in molar units. In the case of “purified recombinant α-thrombin (from UniProt P00734 328-363; P00734 364-622) (enzyme)”, the pKd is 8.89.

Consider “purified α-thrombin derived from plasma (from UniProt P00734 328-363; P00734 364-622) (enzyme)”, for which the pKd is 8.85.

For the origin of these results see patent US20040197858A1.
